These are literature values, as cited in patent US20240115678A1, “PERSONALIZED […] CANCER THERAPY” (priority 2022, published 2024).

Series [1] relates to metastatic colorectal cancer. Conditions: added to bevacizumab and chemotherapy.

Turning to “cetuximab: anti-epidermal growth factor receptor (EGFR) monoclonal antibody”, the survival result in series [1] is reported as “decreased survival”.

As to “interleukin 2: high-dose i.v. interleukin 2, later with autologous lymphokine-activated killer cells”, under “Responders (n=3), Phases 2 and 3”, the “plasma ascorbate levels recovered” value is reported as “at least 0.1 mg/dl”. Further, for the setting “after first phase, high-dose interleukin 2 alone”, the “drop of mean plasma ascorbic acid level” value is reported as 80%. Under “after first phase, high-dose interleukin 2 alone, 11 advanced cancer patients”, the “mean plasma ascorbic acid level” value is 0.13 ± 0.08 mg/dL. For the same substance, the “blood pantothenate and plasma vitamin E” value (all 11 patients, throughout the phases of therapy) was “remained within normal limits”. The “plasma ascorbic acid, undetectable” value (in eight of 11 patients during remainder of treatment) is “less than 0.05 mg/dl”.
